Source: article PMC7316143 (Drug testing and analysis, 2018)

Sequences of proteins named here, by UniProt entry; tags and fusion partners are left off.
UniProt P23977, whole entry: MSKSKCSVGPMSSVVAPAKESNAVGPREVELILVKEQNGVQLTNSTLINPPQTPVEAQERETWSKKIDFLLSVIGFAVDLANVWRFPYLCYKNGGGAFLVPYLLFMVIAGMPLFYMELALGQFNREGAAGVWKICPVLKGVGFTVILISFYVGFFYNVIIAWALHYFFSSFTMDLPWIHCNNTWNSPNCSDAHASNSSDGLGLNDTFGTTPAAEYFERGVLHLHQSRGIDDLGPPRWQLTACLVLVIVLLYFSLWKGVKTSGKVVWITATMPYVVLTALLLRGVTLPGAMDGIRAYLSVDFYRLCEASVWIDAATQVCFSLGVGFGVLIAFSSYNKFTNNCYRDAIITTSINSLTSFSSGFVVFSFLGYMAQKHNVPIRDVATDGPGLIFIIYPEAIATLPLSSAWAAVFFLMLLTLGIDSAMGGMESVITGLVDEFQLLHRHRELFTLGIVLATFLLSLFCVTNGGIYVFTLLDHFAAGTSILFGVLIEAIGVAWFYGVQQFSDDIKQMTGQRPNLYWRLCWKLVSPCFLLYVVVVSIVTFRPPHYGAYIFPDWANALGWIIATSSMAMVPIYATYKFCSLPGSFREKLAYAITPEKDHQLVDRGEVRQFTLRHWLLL

Assays:
DAT [1] = target: T1, DAT (Rattus norvegicus, UniProt P23977); assay: [3H]dopamine uptake inhibition at DAT in rat brain synaptosomes; assay type: biochemical; conditions: (DAT IC50^-1)/(SERT IC50^-1); higher value indicates greater DAT selectivity
DAT [2] = target: T1, DAT; assay: [3H]MPP+ release at DAT in rat brain synaptosomes; assay type: biochemical; conditions: (DAT EC50^-1)/(SERT EC50^-1); higher value indicates greater DAT selectivity

## CC1NCCOC1c1ccccc1 (centres unmarked) [Phenmetrazine, 3-methyl-2-phenylmorpholine, reference compound]
DAT [1]
  DAT/SERT ratio (uptake inhibition): 3.8
DAT [2]
  DAT/SERT ratio (release): >142.0
